Measured values taken from patent publication US4886915A, “Water soluble organic ammonium per halides” (priority 1988, dated 1989).

Assays:
[1] = water
[2] = closed bottle, 29200 h
[3] = closed bottle, 17520 h
[4] = Titration for oxidizable bromine (Standard Methods for the Examination of Water and Waste Water, Method 408A); details: Table 3; crystalline perbromide precipitated out of aqueous solution
[5] = Vapor pressure of aqueous organic ammonium perbromides (isoteniscope); details: @ 26° C.; Table 9

Substance: 1,6-Hexanediammonium [compound 16]
- Solubility [1]: 50

Substance: Diethanolammonium Perbromide [Compound #4]
- Relative Change in % Br2 [2]: 18.9%

Substance: Diethanolammonium Perbromide [compound 23]
- Relative Change in % Br2 [3]: 10.9%
- Relative Change in % Br2 [2]: 26.2%

Substance: Diethylammonium Perbromide [compound 15]
- Tit. Ox. Br [4]: 47.9 % by Weight

Substance: Dipropylammonium Perbromide [compound 10]
- Solubility [1]: 10 g./100 g H2O

Substance: Ethanolammonium Perbromide [Compound #17]
- Vp [5]: 57 mmHg

Read-outs that look alike come from different tables or passages of the source.
